# In patent publication US20230312510A1, “COMPOUNDS AND METHODS FOR TREATING NEURODEGENERATIVE DISEASES” (The McLean Hospital Corporation, priority 2020, published 2023):
# Tested on: point-mutant Nurr1-LBD
# Experiment: Nurr1 transactivation with point-mutant Nurr1-LBD in SK-N-BE(2)C cells
# Settings: CQ 100 μM, SPV-94 20 μM; S441, I573, I588, K590, L593, D594, T595, L596 or F598 mutants
smiles,measurement,value
CCN1CCN(c2cc(NCCNc3ccnc4cc(Cl)ccc34)nc(N3CCN(CC)CC3)n2)CC1 [SPV-94],Nurr1 transactivation with point mutations on potential binding residues of Nurr1-LBD,failed to induce
